Source: publication PMC3794980, “Identification of Conserved and HLA Promiscuous DENV3 T-Cell Epitopes” (PLoS Neglected Tropical Diseases, 2013)

Columns and labels:
Assay in all cases: biochemical
Format in all cases: binding
[1] = molecular target: DRB1*1101 (Homo sapiens, UniProt P01903+P01911, A100R/A169T/A87E/I96F/K41T/L162R/M171V/P40S/Q125H/Q178H/Q39Y/Q99D/R42S/S66Y/T262R/V115G/W38E)
[2] = molecular target: DRB1*1302 (Homo sapiens, UniProt P01903+P01911, A100E/A169T/K41T/L162R/M171V/P40S/Q125H/Q178H/Q39Y/Q99D/R42S/S66N/T262R/V115G/W38E/Y61H)
[3] = molecular target: DRB1*0405 (Homo sapiens, UniProt P01903+P01911, A100R/A169T/D86S/F76Y/I96L/K127E/L162R/M171V/N62H/P40V/Q125Y/R42H/S133A/S149N/S66Y/V115G/V209L/W38E)
[4] = molecular target: DRB1*0701 (Homo sapiens, UniProt P01903+P01911, A100R/A102G/A103Q/D57E/D86V/E43K/F76Y/K127E/L162R/M171V/P40G/Q125H/Q99D/R33Q/R42Y/R54Q/S133A/S66F/T210M/V115G/Y107V/Y59L/Y89S)
[5] = molecular target: DRB1*0802 (Homo sapiens, UniProt P01903+P01911, A100R/A103L/A169T/F76Y/H45Y/I96F/K41T/L162R/M171V/P40S/Q125H/Q178H/Q39Y/Q99D/R218S/R42G/S66Y/V115G/W38E)
[6] = molecular target: DRB1*0101 (Homo sapiens, UniProt P01903+P01911, A100R/D57E/F55L/F60I/F76Y/I96L/L162R/M171V/P40L/Q125E/R42F/V115G/Y59C)
[7] = molecular target: DRB1*0401 (Homo sapiens, UniProt P01903+P01911, A100K/A169T/F76Y/I96L/K127E/L162R/M171V/N62H/P40V/Q125Y/R42H/S133A/S149N/S66Y/V115G/V209L/W38E)
[8] = molecular target: DRB4*0101 (Homo sapiens, UniProt P01903+P13762, G164S); details: read-out: Binding Affinity (nM) DRB4*0101
[9] = molecular target: DRB1*1501 (Homo sapiens, UniProt P01903+P01911)
[10] = molecular target: DRB1*0901 (Homo sapiens, UniProt P01903+P01911, A100R/A103E/D57H/D86V/F55Y/F60I/F76Y/I96F/K127E/L162R/M171V/P40D/Q125H/Q99R/R33Q/R42F/S133A/S66N/T210M/V115G/W38K/Y107V/Y59G/Y89S)
[11] = molecular target: DRB1*0301 (Homo sapiens, UniProt P01903+P01911, A100K/A102G/A103R/A169T/F55Y/I96L/K41T/L162R/M171V/P40S/Q125H/Q178H/Q39Y/R42S/S66N/T106N/T262R/W38E/Y61H)
[12] = molecular target: DRB1*0404 (Homo sapiens, UniProt P01903+P01911, A100R/A169T/F76Y/I96L/K127E/L162R/M171V/N62H/P40V/Q125Y/R42H/S133A/S149N/S66Y/V209L/W38E)
[13] = read-out: Binding Affinity (nM) DRB1*0405

| Structure (SMILES) | IC50 [1] | IC50 ([2]; read-out: Binding Affinity (nM) DRB1*1302) | IC50 [3, 13] | IC50 [4] | IC50 [5] | IC50 [6] | IC50 ([7]; read-out: Binding Affinity (nM) DRB1*0401) | IC50 [8] | IC50 [9] | IC50 [10] | IC50 [11] | IC50 ([12]; read-out: Binding Affinity (nM) DRB1*0404) | IC50 [2] | IC50 [7] | IC50 [12] | IC50 [3] | IC50 ([5]; read-out: Binding Affinity (nM) DRB1*0802) | IC50 ([1]; read-out: Binding Affinity (nM) DRB1*1101) | IC50 ([2]; competitive inhibition of radiolabeled standard peptide, '-' distinct from ND, read-out: Binding Affinity (nM) DRB1*1302) | IC50 ([10]; competitive inhibition of radiolabeled standard peptide, '-' distinct from ND, read-out: Binding Affinity (nM) DRB1*0901) |
| --- | --- | --- | --- | --- | --- | --- | --- | --- | --- | --- | --- | --- | --- | --- | --- | --- | --- | --- | --- | --- |
| CC[C@H](C)[C@H](NC(=O)CNC(=O)[C@H](CO)NC(=O)CNC(=O)[C@H](CS)NC(=O)[C@H](CCCCN)NC(=O)[C@H](CC(C)C)NC(=O)[C@H](CCC(=O)O)NC(=O)[C@H](CCCCN)NC(=O)CNC(=O)[C@H](CCCCN)NC(=O)[C@H](Cc1c[nH]c2ccccc12)NC(=O)[C@H](CC(N)=O)NC(=O)[C@@H](NC(=O)[C@@H](N)C(C)C)[C@@H](C)CC)C(=O)O [NS1 5-19] | 13200 nM | > 20000 nM | > 20000 nM | 10.2 µM | 14900 nM | 12.7 µM | > 20000 nM | > 20000 nM | 1.12 µM | 18100 nM | 14 µM | > 20000 nM | – | – | – | – | – | – | – | – |
| CC[C@H](C)[C@H](NC(=O)[C@@H]1CCCN1C(=O)CNC(=O)[C@H](C)NC(=O)[C@H](CC(C)C)NC(=O)[C@H](CO)NC(=O)[C@H](CCCCN)NC(=O)[C@@H]1CCCN1C(=O)[C@@H](NC(=O)[C@@H](NC(=O)[C@H](CCSC)NC(=O)[C@H](CC(=O)O)NC(=O)[C@H](CO)NC(=O)[C@H](CCC(=O)O)NC(=O)[C@@H](N)CC(C)C)[C@@H](C)CC)[C@@H](C)CC)C(=O)O [NS1 237-251] | 9610 nM | – | > 20000 nM | 5.24 µM | 10600 nM | 1.58 µM | – | > 20000 nM | 9.58 µM | 4700 nM | 8.1 µM | – | 4500 nM | 11400 nM | 15700 nM | – | – | – | – | – |
| CC(C)C[C@H](NC(=O)[C@H](CCCNC(=N)N)NC(=O)[C@H](CCCCN)NC(=O)CNC(=O)[C@H](CC(N)=O)NC(=O)[C@H](Cc1ccc(O)cc1)NC(=O)[C@@H](NC(=O)[C@H](CC(C)C)NC(=O)[C@@H](N)C(C)C)[C@@H](C)O)C(=O)N[C@@H](CCC(=O)O)C(=O)N1CCC[C@H]1C(=O)N[C@@H](CC(N)=O)C(=O)N[C@@H](Cc1c[nH]c2ccccc12)C(=O)N[C@@H](C)C(=O)N[C@@H](CO)C(=O)O [NS3 57-71] | 2310 nM | – | – | 1.91 µM | – | 0.882 µM | – | > 20000 nM | 0.196 µM | 4160 nM | 1.74 µM | – | – | 4470 nM | 7440 nM | 10800 nM | > 20000 nM | – | – | – |
| CSCC[C@H](NC(=O)[C@@H](NC(=O)[C@H](CCC(N)=O)NC(=O)[C@H](Cc1ccccc1)NC(=O)[C@H](CC(N)=O)NC(=O)[C@H](CCCCN)NC(=O)[C@@H]1CCCN1C(=O)[C@H](CC(N)=O)NC(=O)[C@H](CCCCN)NC(=O)CNC(=O)[C@@H]1CCCN1C(=O)[C@@H](N)CCC(=O)O)[C@@H](C)O)C(=O)N1CCC[C@H]1C(=O)NCC(=O)N[C@H](C(=O)O)[C@@H](C)O [NS3 101-115] | – | – | – | 1.48 µM | 18400 nM | 0.201 µM | – | > 20000 nM | 0.447 µM | – | 5.44 µM | – | – | 1470 nM | 410 nM | 725 nM | – | > 20000 nM | 2090 nM | 1860 nM |

Where two headings read alike, the source gives them in different places.
